# Measurements taken from ChEMBL document CHEMBL3297703, “Novel quinuclidinyl heteroarylcarbamate derivatives as muscarinic receptor antagonists” (Bioorg Med Chem, 2014).
# Chains of the proteins cited; added tags and fusions are not shown. Lines headed by an entry give the natural chain unless they say otherwise; changes in a name come on top.
# UniProt P08483, whole entry: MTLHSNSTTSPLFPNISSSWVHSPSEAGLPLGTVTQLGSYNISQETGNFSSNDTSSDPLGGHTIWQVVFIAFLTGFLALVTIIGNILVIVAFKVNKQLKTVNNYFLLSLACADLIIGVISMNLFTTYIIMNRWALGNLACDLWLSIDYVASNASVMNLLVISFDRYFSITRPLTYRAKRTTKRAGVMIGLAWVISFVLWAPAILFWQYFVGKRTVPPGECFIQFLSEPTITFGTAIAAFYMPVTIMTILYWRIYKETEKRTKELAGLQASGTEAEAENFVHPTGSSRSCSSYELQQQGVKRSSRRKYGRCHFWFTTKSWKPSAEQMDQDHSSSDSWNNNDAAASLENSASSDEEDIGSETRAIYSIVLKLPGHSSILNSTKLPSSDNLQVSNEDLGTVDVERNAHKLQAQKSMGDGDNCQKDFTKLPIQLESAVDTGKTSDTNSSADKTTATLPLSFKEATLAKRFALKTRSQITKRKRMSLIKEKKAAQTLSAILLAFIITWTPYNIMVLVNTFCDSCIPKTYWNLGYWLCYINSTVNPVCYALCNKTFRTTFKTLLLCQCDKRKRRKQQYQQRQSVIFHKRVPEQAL
# UniProt P08482: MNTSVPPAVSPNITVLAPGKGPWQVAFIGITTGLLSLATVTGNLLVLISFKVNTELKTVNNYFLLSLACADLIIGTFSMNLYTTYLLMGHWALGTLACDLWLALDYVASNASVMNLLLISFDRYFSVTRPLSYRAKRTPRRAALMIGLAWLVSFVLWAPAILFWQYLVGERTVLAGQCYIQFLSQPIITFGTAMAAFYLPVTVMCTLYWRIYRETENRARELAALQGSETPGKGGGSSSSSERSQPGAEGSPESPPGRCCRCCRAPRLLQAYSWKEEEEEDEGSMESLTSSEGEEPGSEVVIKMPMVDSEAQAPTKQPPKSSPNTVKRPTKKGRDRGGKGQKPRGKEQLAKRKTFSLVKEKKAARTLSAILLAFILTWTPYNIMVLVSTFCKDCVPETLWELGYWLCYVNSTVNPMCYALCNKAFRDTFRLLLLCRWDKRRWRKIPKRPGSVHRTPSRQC
# UniProt P10980, whole entry: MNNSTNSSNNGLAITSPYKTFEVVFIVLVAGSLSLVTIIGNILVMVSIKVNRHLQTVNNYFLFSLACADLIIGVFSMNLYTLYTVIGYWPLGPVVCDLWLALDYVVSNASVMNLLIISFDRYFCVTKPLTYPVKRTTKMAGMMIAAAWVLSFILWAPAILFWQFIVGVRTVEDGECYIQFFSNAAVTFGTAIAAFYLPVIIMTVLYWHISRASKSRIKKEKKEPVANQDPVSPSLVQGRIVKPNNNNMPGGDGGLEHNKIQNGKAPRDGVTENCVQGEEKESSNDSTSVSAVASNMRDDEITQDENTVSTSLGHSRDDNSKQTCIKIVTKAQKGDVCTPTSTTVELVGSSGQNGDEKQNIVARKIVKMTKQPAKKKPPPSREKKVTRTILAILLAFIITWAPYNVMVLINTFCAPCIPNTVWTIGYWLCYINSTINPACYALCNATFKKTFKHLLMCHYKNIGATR
# Key:
# [1] = molecular target: Muscarinic acetylcholine receptor M3 (Rattus norvegicus, UniProt P08483); test: Displacement of [3H]-NMS from Sprague-Dawley rat muscarinic M3 receptor in submandibular gland
# In short: (§1)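 Membranes from male Sprague-Dawley rat cerebral cortex (M1), heart (M2) or submandibular gland (M3), homogenised in 25 mM Tris pH 7.4 with 3.75 mM MgCl2, spun 1000 g. Incubated with [3H]NMS plus compound in Tris buffer, 25 °C, 2 h; filtered, counted. Nonspecific binding with 1 μM NMS. Ki from IC50; mean of duplicates.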
# [2] = molecular target: Muscarinic acetylcholine receptor M1 (Rattus norvegicus, UniProt P08482); test: Displacement of [3H]-NMS from Sprague-Dawley rat muscarinic M1 receptor in cortex membrane; type: cell membranes; in short: as §1
# [3] = molecular target: Muscarinic acetylcholine receptor M2 (Rattus norvegicus, UniProt P10980); test: Displacement of [3H]-NMS from Sprague-Dawley rat muscarinic M2 receptor in heart; in short: as §1
# Rattus norvegicus = organism: Rattus norvegicus; test: Ratio of ID50 for effect on CCh-induced salivation in Sprague-Dawley rat to ID50 for inhibition of CCh-induced bronchoconstriction Sprague-Dawley rat
SMILES,Ki [1] [nM],Ki [2] [nM],Ki [3] [nM],Ratio (Rattus norvegicus)
CC(C)[N+]1(C)C2CCC1CC(OC(=O)C(CO)c1ccccc1)C2 (centres undefined),0.18,0.29,0.78,–
C[N+]1(C)CCC(OC(=O)C(O)(c2ccccc2)C2CCCC2)C1.[Br-] (centres undefined) [GLYCOPYRRONIUM BROMIDE],–,–,–,17
